Holding throughout (experiment): enzyme inhibition assay
Experiment [1] concerns the target T1, human plasma Kallikrein (human, UniProt P03952 20-638, limits assumed).
T1 construct: also called hPK; human PK

Chains of the proteins cited; added tags and fusions are not shown. Residues count along the entry.
UniProt P03952, 20-638 limits assumed: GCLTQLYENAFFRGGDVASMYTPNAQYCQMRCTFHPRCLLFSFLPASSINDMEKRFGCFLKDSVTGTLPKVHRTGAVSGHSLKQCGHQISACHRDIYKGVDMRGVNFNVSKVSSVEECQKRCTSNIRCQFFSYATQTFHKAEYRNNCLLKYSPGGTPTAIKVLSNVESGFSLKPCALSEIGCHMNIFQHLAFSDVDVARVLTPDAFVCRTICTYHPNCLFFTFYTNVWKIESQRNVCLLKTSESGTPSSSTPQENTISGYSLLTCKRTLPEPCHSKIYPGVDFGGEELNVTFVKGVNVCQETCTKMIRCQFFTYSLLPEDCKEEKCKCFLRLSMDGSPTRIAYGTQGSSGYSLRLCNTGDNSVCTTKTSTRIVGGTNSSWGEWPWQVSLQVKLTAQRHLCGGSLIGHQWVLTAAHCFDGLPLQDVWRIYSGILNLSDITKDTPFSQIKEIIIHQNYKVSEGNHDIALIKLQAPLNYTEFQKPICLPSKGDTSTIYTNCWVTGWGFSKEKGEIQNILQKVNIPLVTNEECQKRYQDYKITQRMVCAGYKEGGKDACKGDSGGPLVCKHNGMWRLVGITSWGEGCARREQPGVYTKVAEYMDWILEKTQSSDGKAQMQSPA
UniProt P14272, 391-638 limits assumed: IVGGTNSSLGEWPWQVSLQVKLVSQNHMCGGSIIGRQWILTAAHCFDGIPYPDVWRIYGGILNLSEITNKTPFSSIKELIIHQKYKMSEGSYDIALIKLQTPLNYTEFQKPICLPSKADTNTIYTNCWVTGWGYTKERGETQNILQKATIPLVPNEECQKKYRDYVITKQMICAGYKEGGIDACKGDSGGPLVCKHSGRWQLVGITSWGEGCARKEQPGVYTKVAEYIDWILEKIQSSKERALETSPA

The target in the next experiment is T2, Rat plasma Kallikrein (rat, UniProt P14272 391-638, limits assumed).
T2 construct: domain: catalytic domain; also called rPK; rat PK

Experiment [2] has as its target T1, human plasma Kallikrein. This is another data set of the same source.
Experiment [3] addresses T1, human plasma Kallikrein. This is another data set of the same source.
Experiment [4] addresses T1, human plasma Kallikrein. The source holds these as a separate data set.

Like-named read-outs stand apart in the source and are kept apart here.

This passage reports IC50 and Ki results from patent publication US10800813 (Bicycle, dated 2020).

B1: 06-34 (peptide)
peptide: ACRWPARCVHQDLCA
modifications: 3 Cys on TMB scaffold
notes: also called PK101
Usually IC50 stands for the concentration that inhibits the measured activity by half. Low values mean greater potency in that assay, high ones weaker potency in that assay. For orientation: Ki means the dissociation constant of the complex between target and ligand, obtained from inhibition or displacement. A low value points to a stronger hold on the target. As to B1, the IC50 with human plasma Kallikrein [1] turned out to be 0.19 nM; with Rat plasma Kallikrein it was 7.38 nM. In the experiment with human plasma Kallikrein [2], this molecule came in with a Ki of 0.128 nM.

B2: 06-34-19 (01 + 05 + R/K) (peptide)
peptide: ACSWPAKCLHQDLCA
modifications: 3 Cys on TMB scaffold
notes: also called WPAK peptide
As to B2, in the experiment with human plasma Kallikrein [1], half-maximal inhibition (IC50) was put at 0.19 nM.

B3: 06-143 (peptide)
peptide: ACFPSHDCDGRRMCA
modifications: 3 Cys on TMB scaffold
notes: also called PK116
As to B3, affinity with human plasma Kallikrein [3] was put at a Ki of 1.27 nM.

B4: 3B3 (peptide)
peptide: ACFKACRVNCA
modifications: 3 Cys on TMB scaffold
notes: also called PK117
For the molecule B4, in the experiment with human plasma Kallikrein [4], affinity was put at a Ki of 0.59 nM.

B5: 06-56 (peptide)
peptide: ACGGPQNCRTWTTCA
modifications: 3 Cys on TMB scaffold
notes: also called PK114
B5: the Ki in the experiment with human plasma Kallikrein [3] was determined as 2.1 nM. This lies in the single-digit nanomolar range.

B6: 1E6 (peptide)
peptide: ACAWPARCLTTSLCG
modifications: 3 Cys on TMB scaffold
notes: also called PK104
Regarding B6, the Ki with human plasma Kallikrein [3] amounted to 0.16 nM. This Ki is about 13-fold lower than that of the molecule before.
